Source: patent US6517846B2, “Cosmetic composition” (Kyowa Hakko Kogyo Co., Ltd., priority 2000, dated 2003)
Read-outs that look alike come from different tables or passages of the source.

Experiments:
[1] = tested on: human normal keratinocytes
[2] = tested on: human subjects (washing hands)
[3] = tested on: human skin (forearm crook, females with roughening skin); details: 78 hours after the first treatment on day 1, 5 w/v % solution
IL-1α = details: mean n = 2
[4] = tested on: human skin (forearm crook, females with roughening skin)

Substance	suppressive effects on cytotoxicity, compared with the triethanolamine salt [1]	Irritation (after use), average score ([2]; grades scored, 1 Very irritative, 5 Very mild, mean n = 5)	irritation on washing, in words ([2]; summary of Table 6)	Desquamation [3]	Erythema [3]	Desquamation ([3]; listed as N-cocoyl-L-glutaminate)	IL-1α (IL-1α; 10 ppm test compound) [pg/well]	IL-1α (IL-1α; 30 ppm test compound) [pg/well]	IL-1α (IL-1α; 60 ppm test compound) [pg/well]	IL-1α (IL-1α; 100 ppm test compound) [pg/well]	IL-1α (IL-1α; 300 ppm test compound) [pg/well]	Relative water transpiration rates ([4]; next day after the 4-day treatment, Control = 100, mean n = 4) [%]	water transpiration rate, in words ([4]; summary of Table 5)
Sodium salt of N-cocoylglutamine [sodium salt of N-cocoyl-L-glutamine]	equivalent	–	–	–	–	–	–	–	–	–	–	–	–
Triethanolamine N-Cocoyl-L-glutaminate [GMT]	–	0	low irritation	A little	None	lowest	137.25	132.43	197.25	249.22	311.18	110	lowest
